Measurements from patent US20130011870A1, “Method For Assaying Diseases Characterized By Dyslipidemia” (priority 2010, published 2013).

Tested on: serine palmitoyltransferase (SPT) in SPTLC3 overexpressing HEK293 cells
Experiment: In vitro SPT activity with various acyl-CoA substrates (Example 1, FIG. 3)
Type: biochemical
Conditions: acyl-CoA 50 μM; activity with palmitoyl-CoA defined as 100%
Experimental: FIG. 3 In vitro SPT activity with various acyl-CoA substrates (C12-CoA, C14-CoA, C16-CoA and C18:1-CoA) in control, SPTLC1, SPTLC2 and SPTLC3 overexpressing HEK293 cells. […] (For comparison the activity with palmitoyl-CoA is defined as 100%.)
All acyl-CoAs were used at the same concentration (50 μM).

CCCCCCCCCCCCCC(=O)SCCNC(=O)CCNC(=O)[C@H](O)C(C)(C)COP(=O)(O)OP(=O)(O)OC[C@H]1O[C@@H](n2cnc3c(N)ncnc32)[C@H](O)[C@@H]1OP(=O)(O)O [myristoyl-CoA]
SPT activity with the acyl-CoA substrate in SPTLC3 overexpressing cells compared with control, SPTLC1 and SPTLC2 cells: significantly higher activity
